# Source: ChEMBL document CHEMBL2021862, “5-imino-1,2,4-thiadiazoles: first small molecules as substrate competitive inhibitors of glycogen synthase kinase 3” (J Med Chem, 2012)
# The chains behind the UniProt entries cited, without tags or fusion partners. Where a name states a change or a piece, a line headed by the entry shows the natural chain unless it says otherwise.
# UniProt P49841: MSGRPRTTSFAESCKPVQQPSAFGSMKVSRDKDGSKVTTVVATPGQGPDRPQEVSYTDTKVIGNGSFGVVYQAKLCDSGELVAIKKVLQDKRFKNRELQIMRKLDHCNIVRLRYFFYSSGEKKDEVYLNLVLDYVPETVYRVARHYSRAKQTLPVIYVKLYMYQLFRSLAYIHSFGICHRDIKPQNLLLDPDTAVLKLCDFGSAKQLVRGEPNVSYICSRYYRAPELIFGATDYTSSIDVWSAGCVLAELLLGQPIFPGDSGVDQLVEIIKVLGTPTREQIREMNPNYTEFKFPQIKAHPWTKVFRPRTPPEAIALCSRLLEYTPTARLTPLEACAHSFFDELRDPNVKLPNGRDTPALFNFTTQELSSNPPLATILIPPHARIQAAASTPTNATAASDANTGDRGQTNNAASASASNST
# Biological target: Glycogen synthase kinase-3 beta (Homo sapiens, UniProt P49841)
# Assay: Inhibition of human recombinant GSK3beta after 30 mins by luminescence assay in presence of ATP
# Summary of the method: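 Human recombinant GSK-3β (20 ng) with prephosphorylated polypeptide substrate 25 μM and ATP 1 μM in 50 mM HEPES pH 7.5, 1 mM EDTA, 1 mM EGTA, 15 mM Mg acetate. Final DMSO ≤1%. Incubated 30 min at 30 °C, stopped with Kinase-Glo reagent, and luminescence read after 10 min. Inhibition is relative to the no-inhibitor maximum. IC50 is the concentration giving 50% activity loss.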
row,IC50 [nM],Compound
1,2800,c1ccc(/N=c2\nc(-c3ccccc3)n(-c3ccccc3)s2)cc1
2,900,Br.c1ccc(/N=c2/nc(-c3ccccc3)n(-c3ccccc3)s2)cc1
